Experimental data reported in article PMC2847038 (Hippocampus, 2010).

The chains behind the UniProt entries cited, without tags or fusion partners.
UniProt P20272, whole entry: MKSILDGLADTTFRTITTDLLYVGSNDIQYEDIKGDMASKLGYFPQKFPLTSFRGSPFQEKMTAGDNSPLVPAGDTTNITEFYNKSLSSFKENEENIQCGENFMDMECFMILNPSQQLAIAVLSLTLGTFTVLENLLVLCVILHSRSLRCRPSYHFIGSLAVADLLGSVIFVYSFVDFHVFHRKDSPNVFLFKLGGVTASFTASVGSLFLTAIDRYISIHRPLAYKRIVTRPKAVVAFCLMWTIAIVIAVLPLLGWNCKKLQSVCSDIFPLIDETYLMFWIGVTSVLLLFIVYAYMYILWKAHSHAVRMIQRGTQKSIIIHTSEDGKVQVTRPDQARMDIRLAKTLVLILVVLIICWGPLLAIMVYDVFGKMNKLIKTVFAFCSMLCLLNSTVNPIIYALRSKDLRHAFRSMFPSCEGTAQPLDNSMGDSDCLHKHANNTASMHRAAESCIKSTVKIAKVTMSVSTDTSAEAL

Key:
CB1 receptor [1] = target: T1, CB1 receptor (Rattus norvegicus, UniProt P20272); test: CB1 receptor-mediated [^35S]GTPγS binding assay; type: biochemical, Sprague-Dawley rats; details: hippocampus membranes
CB1 receptor [2] = target: T1, CB1 receptor; test: CB1 receptor binding assay; set-up: species or system Sprague-Dawley rats

SMILES	Emax (maximal stimulation of ^35S-GTPγS binding) (CB1 receptor [1]; CON animals)	Emax (maximal stimulation of ^35S-GTPγS binding) (CB1 receptor [1]; VEx animals)	Bmax (CB1 receptor [2]; hippocampus membranes, sedentary control (CON) animals)	Bmax (CB1 receptor [2]; hippocampus membranes, voluntary exercise (VEx) animals, 8 days running wheel)	Bmax (CB1 receptor [2]; prefrontal cortex membranes, CON animals)	Bmax (CB1 receptor [2]; prefrontal cortex membranes, VEx animals)
Cc1c(C(=O)c2cccc3ccccc23)c2cccc3c2n1[C@H](CN1CCOCC1)CO3 [WIN 55,212-2]	152.0 +/- 4.5 % baseline	232.3 +/- 31.0 % baseline				
CCCCCCC(C)(C)c1ccc([C@@H]2C[C@H](O)CC[C@H]2CCCO)c(O)c1 [^3H-CP55940]			0.44 +/- 0.03 pmol/mg protein	0.60 +/- 0.02* pmol/mg protein	0.38 +/- 0.06 pmol/mg protein	0.34 +/- 0.03 pmol/mg protein

Marks after values point to notes of the source that are not given here.
